Data taken from patent US20090099157A1, “TETRAHYDRO-PYRAZOLO-PYRIDINE THIOETHER MODULATORS OF CATHEPSIN S” (priority 2007, published 2009).

By UniProt entry, the sequences of proteins in these tests, tags left out. Residues count along the entry.
UniProt P25774, 115-331: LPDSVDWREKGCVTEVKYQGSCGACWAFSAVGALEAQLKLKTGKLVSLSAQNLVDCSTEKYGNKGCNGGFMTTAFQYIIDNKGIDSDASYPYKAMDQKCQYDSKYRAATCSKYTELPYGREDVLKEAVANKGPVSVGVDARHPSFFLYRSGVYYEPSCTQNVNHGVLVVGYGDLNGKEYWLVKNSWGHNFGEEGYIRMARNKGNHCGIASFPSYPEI

Molecular target: Recombinant human cathepsin S (CatS) (Homo sapiens, UniProt P25774)
Test: biochemical

SMILES | IC50
CS(=O)(=O)N1CCc2c(c(-c3ccc(C(F)(F)F)c(SCCN4CCOCC4)c3)nn2CC(O)CN2CCC(c3ccncc3)CC2)C1 (stereo not shown) [Example 664, 1-[5-(Methylsulfonyl)-3-{3-[(2-morpholin-4-ylethyl)sulfanyl]-4-(trifluoromethyl)phenyl}-4,5,6,7-tetrahydro-1H-pyrazolo[4,3-c]pyridin-1-yl]-3-(4-pyridin-4-ylpiperidin-1-yl)propan-2-ol] | 65 nM
CS(=O)(=O)N1CCc2c(c(-c3ccc(C(F)(F)F)c(SCCNC4CC4)c3)nn2CCCN2CCC(N3CCCC3=O)CC2)C1 [Example 524, 1-[1-(3-{3-[3-{[2-(Cyclopropylamino)ethyl]sulfanyl}-4-(trifluoromethyl)phenyl]-5-(methylsulfonyl)-4,5,6,7-tetrahydro-1H-pyrazolo[4,3-c]pyridin-1-yl}propyl)piperidin-4-yl]pyrrolidin-2-one] | 200 nM
O=S(=O)(N1CCc2c(c(-c3ccc(C(F)(F)F)c(SCCN4CCC(F)CC4)c3)nn2C[C@@H](O)CN2CCCCC2)C1)C(F)(F)F [Example 647, (2S)-1-{3-[3-{[2-(4-Fluoropiperidin-1-yl)ethyl]sulfanyl}-4-(trifluoromethyl)phenyl]-5-[(trifluoromethyl)sulfonyl]-4,5,6,7-tetrahydro-1H-pyrazolo[4,3-c]pyridin-1-yl}-3-piperidin-1-ylpropan-2-ol] | 310 nM
CC(=O)N1CCc2c(c(-c3ccc(C(F)(F)F)c(SCC(=O)N4CCOCC4)c3)nn2CC(O)CN2CCC(C(=O)N3CCCC3)CC2)C1 (stereo not shown) [Example 661, 1-(5-Acetyl-3-{3-[(2-morpholin-4-yl-2-oxoethyl)sulfanyl]-4-(trifluoromethyl)phenyl}-4,5,6,7-tetrahydro-1H-pyrazolo[4,3-c]pyridin-1-yl)-3-[4-(pyrrolidin-1-ylcarbonyl)piperidin-1-yl]propan-2-ol] | 110 nM
NCC(=O)N1CCc2c(c(-c3ccc(C(F)(F)F)c(SCCN4CCC(F)CC4)c3)nn2CC(O)CN2CCCCC2)C1 (stereo not shown) [Example 338, 1-{3-[3-{[2-(4-Fluoropiperidin-1-yl)ethyl]sulfanyl}-4-(trifluoromethyl)phenyl]-5-glycyl-4,5,6,7-tetrahydro-1H-pyrazolo[4,3-c]pyridin-1-yl}-3-piperidin-1-ylpropan-2-ol] | 810 nM
NC(=O)N1CCc2c(c(-c3ccc(C(F)(F)F)c(SCCN4CCC(F)CC4)c3)nn2C[C@@H](O)CN2CCCCC2)C1 [Example 322, 3-[3-{[2-(4-Fluoropiperidin-1-yl)ethyl]sulfanyl}-4-(trifluoromethyl)phenyl]-1-[(2S)-2-hydroxy-3-piperidin-1-ylpropyl]-1,4,6,7-tetrahydro-5H-pyrazolo[4,3-c]pyridine-5-carboxamide] | 230 nM
COc1ccccc1C1CCN(CC(O)Cn2nc(-c3ccc(C(F)(F)F)c(SCC(=O)N4CCOCC4)c3)c3c2CCN(S(C)(=O)=O)C3)CC1 (stereo not shown) [Example 833, 1-{4-[2-(Methyloxy)phenyl]piperidin-1-yl}-3-[5-(methylsulfonyl)-3-{3-[(2-morpholin-4-yl-2-oxoethyl)sulfanyl]-4-(trifluoromethyl)phenyl}-4,5,6,7-tetrahydro-1H-pyrazolo[4,3-c]pyridin-1-yl]propan-2-ol] | 10 nM
O=C(CSc1cc(-c2nn(CC(O)CN3CCC(c4ccccn4)CC3)c3c2CNCC3)ccc1C(F)(F)F)N1CCOCC1 (stereo not shown) [Example 268, 1-(3-{3-[(2-Morpholin-4-yl-2-oxoethyl)sulfanyl]-4-(trifluoromethyl)phenyl}-4,5,6,7-tetrahydro-1H-pyrazolo[4,3-c]pyridin-1-yl)-3-(4-pyridin-2-ylpiperidin-1-yl)propan-2-ol] | 110 nM
CC(=O)NC1CCN(C[C@H](O)Cn2nc(-c3ccc(C(F)(F)F)c(SCCN4CCC(F)(F)CC4)c3)c3c2CCN(S(C)(=O)=O)C3)CC1 [Example 720, N-{1-[(2S)-3-{3-[3-{[2-(4,4-Difluoropiperidin-1-yl)ethyl]sulfanyl}-4-(trifluoromethyl)phenyl]-5-(methylsulfonyl)-4,5,6,7-tetrahydro-1H-pyrazolo[4,3-c]pyridin-1-yl}-2-hydroxypropyl]piperidin-4-yl}acetamide] | 35 nM
CS(=O)(=O)N1CCc2c(c(-c3ccc(C(F)(F)F)c(SCC(=O)N4CCOCC4)c3)nn2CC(O)CN2CC[C@@H](O)C2)C1 (stereo partly drawn) [Example 408, (3R)-1-{2-Hydroxy-3-[5-(methylsulfonyl)-3-{3-[(2-morpholin-4-yl-2-oxoethyl)sulfanyl]-4-(trifluoromethyl)phenyl}-4,5,6,7-tetrahydro-1H-pyrazolo[4,3-c]pyridin-1-yl]propyl}pyrrolidin-3-ol] | 330 nM

Now from value to compound:

IC50 | SMILES
1990 nM | O=C1CCCN1C1CCN(CC(O)Cn2nc(-c3ccc(C(F)(F)F)c(SCCN4CCCCC4)c3)c3c2CCNC3)CC1 (stereo not shown) [Example 228, 1-{1-[2-Hydroxy-3-(3-{3-[(2-piperidin-1-ylethyl)sulfanyl]-4-(trifluoromethyl)phenyl}-4,5,6,7-tetrahydro-1H-pyrazolo[4,3-c]pyridin-1-yl)propyl]piperidin-4-yl}pyrrolidin-2-one]
10 nM | CS(=O)(=O)N1CCc2c(c(-c3ccc(C(F)(F)F)c(SCC(=O)N4CCOCC4)c3)nn2CC(O)CN2CCC(c3ccccn3)CC2)C1 (stereo not shown) [Example 261, 1-[5-(Methylsulfonyl)-3-{3-[(2-morpholin-4-yl-2-oxoethyl)sulfanyl]-4-(trifluoromethyl)phenyl}-4,5,6,7-tetrahydro-1H-pyrazolo[4,3-c]pyridin-1-yl]-3-(4-pyridin-2-ylpiperidin-1-yl)propan-2-ol]
630 nM | CS(=O)(=O)N1CCc2c(c(-c3ccc(C(F)(F)F)c(SCCN4CCOCC4)c3)nn2CC(O)CN2CCC(N3CCCC3)CC2)C1 (stereo not shown) [Example 644, 1-[5-(Methylsulfonyl)-3-{3-[(2-morpholin-4-ylethyl)sulfanyl]-4-(trifluoromethyl)phenyl}-4,5,6,7-tetrahydro-1H-pyrazolo[4,3-c]pyridin-1-yl]-3-(4-pyrrolidin-1-ylpiperidin-1-yl)propan-2-ol]
1830 nM | CS(=O)(=O)N1CCc2c(c(-c3ccc(C(F)(F)F)c(SCCN4CNC(=O)C4)c3)nn2CCCN2CCCCC2)C1 [Example 324, 1-[2-({5-[5-(Methylsulfonyl)-1-(3-piperidin-1-ylpropyl)-4,5,6,7-tetrahydro-1H-pyrazolo[4,3-c]pyridin-3-yl]-2-(trifluoromethyl)phenyl}sulfanyl)ethyl]imidazolidin-4-one]
660 nM | CN(C)C1CCN(C(=O)CSc2cc(-c3nn(CCCN4CCC(N5CCCC5=O)CC4)c4c3CN(S(C)(=O)=O)CC4)ccc2C(F)(F)F)C1 (stereo not shown) [Example 88, 1-{1-[3-(3-{3-[2-(3-Dimethylamino-pyrrolidin-1-yl)-2-oxo-ethylsulfanyl]-4-trifluoromethyl-phenyl}-5-methanesulfonyl-4,5,6,7-tetrahydro-pyrazolo[4,3-c]pyridin-1-yl)-propyl]-piperidin-4-yl}-pyrrolidin-2-one]
180 nM | CC1C(=O)NCCN1CCSc1cc(-c2nn(CC(O)CN3CCC(O)(c4ccccn4)CC3)c3c2CN(S(C)(=O)=O)CC3)ccc1C(F)(F)F (stereo not shown) [Example 836, 4-(2-{[5-{1-[2-Hydroxy-3-(4-hydroxy-4-pyridin-2-ylpiperidin-1-yl)propyl]-5-(methylsulfonyl)-4,5,6,7-tetrahydro-1H-pyrazolo[4,3-c]pyridin-3-yl}-2-(trifluoromethyl)phenyl]sulfanyl}ethyl)-3-methylpiperazin-2-one]
290 nM | N#Cc1ccccc1N1CCN(CC(O)Cn2nc(-c3ccc(C(F)(F)F)c(SCCN4CCC(F)(F)C4)c3)c3c2CCNC3)CC1 (stereo not shown) [Example 560, 2-[4-(3-{3-[3-{[2-(3,3-Difluoropyrrolidin-1-yl)ethyl]sulfanyl}-4-(trifluoromethyl)phenyl]-4,5,6,7-tetrahydro-1H-pyrazolo[4,3-c]pyridin-1-yl}-2-hydroxypropyl)piperazin-1-yl]benzonitrile]
880 nM | Oc1ccc(N2CCN(CC(O)Cn3nc(-c4ccc(C(F)(F)F)c(SCCN5CCC(F)(F)C5)c4)c4c3CCNC4)CC2)cc1 (stereo not shown) [Example 506, 4-[4-(3-{3-[3-{[2-(3,3-Difluoropyrrolidin-1-yl)ethyl]sulfanyl}-4-(trifluoromethyl)phenyl]-4,5,6,7-tetrahydro-1H-pyrazolo[4,3-c]pyridin-1-yl}-2-hydroxypropyl)piperazin-1-yl]phenol]
4 nM | CS(=O)(=O)N1CCc2c(c(-c3ccc(C(F)(F)F)c(SCC(=O)N4CC[C@@H](O)C4)c3)nn2CC(O)CN2CCC(c3ccccn3)CC2)C1 (stereo partly drawn) [Example 713, (3R)-1-({[5-{1-[2-Hydroxy-3-(4-pyridin-2-ylpiperidin-1-yl)propyl]-5-(methylsulfonyl)-4,5,6,7-tetrahydro-1H-pyrazolo[4,3-c]pyridin-3-yl}-2-(trifluoromethyl)phenyl]sulfanyl}acetyl)pyrrolidin-3-ol]
45 nM | CS(=O)(=O)N1CCc2c(c(-c3ccc(C(F)(F)F)c(SCCNS(=O)(=O)C(F)(F)F)c3)nn2CC(O)CN2CCC(N3CCCC3=O)CC2)C1 (stereo not shown) [Example 867, 1,1,1-Trifluoro-N-[2-({5-[1-{2-hydroxy-3-[4-(2-oxopyrrolidin-1-yl)piperidin-1-yl]propyl}-5-(methylsulfonyl)-4,5,6,7-tetrahydro-1H-pyrazolo[4,3-c]pyridin-3-yl]-2-(trifluoromethyl)phenyl}sulfanyl)ethyl]methanesulfonamide]
1360 nM | CS(=O)(=O)N1CCc2c(c(-c3ccc(C(F)(F)F)c(SCCN4CCOCC4)c3)nn2CC(O)CN2CCCC(F)(F)C2)C1 (stereo not shown) [Example 518, 1-(3,3-Difluoropiperidin-1-yl)-3-[5-(methylsulfonyl)-3-{3-[(2-morpholin-4-ylethyl)sulfanyl]-4-(trifluoromethyl)phenyl}-4,5,6,7-tetrahydro-1H-pyrazolo[4,3-c]pyridin-1-yl]propan-2-ol]
20 nM | CS(=O)(=O)N1CCc2c(c(-c3ccc(C(F)(F)F)c(SCCN4CCC(O)CC4)c3)nn2CC(O)CN2CCN(c3ccccc3C#N)CC2)C1 (stereo not shown) [Example 171, 2-[4-(2-Hydroxy-3-{3-[3-{[2-(4-hydroxypiperidin-1-yl)ethyl]sulfanyl}-4-(trifluoromethyl)phenyl]-5-(methylsulfonyl)-4,5,6,7-tetrahydro-1H-pyrazolo[4,3-c]pyridin-1-yl}propyl)piperazin-1-yl]benzonitrile]
